This is a selection: effects in other tests are not listed, and their absence says nothing.
How the values were obtained:
[1] = molecular target: TANK-2 enzyme (Homo sapiens, UniProt Q9H2K2); test: In vitro scintillation proximity assay (SPA) for TANK-2 inhibitory activity; conditions: auto-poly(ADP-ribosyl)ation, [3H]-NAD+, 96- or 384-well Ni Flash plates
[2] = molecular target: T1, PARP-1 enzyme (Homo sapiens, UniProt P09874); test: In vitro filtration assay for PARP-1 inhibitory activity; conditions: [32P]-NAD, nicked DNA, histones
[3] = molecular target: T1, PARP-1 enzyme; test: In vitro scintillation proximity assay (SPA) for PARP-1 inhibitory activity; conditions: [3H]-NAD+, nicked DNA, biotinylated histones

Amino acid sequences for entries named in this document (tags omitted).
UniProt Q9H2K2, whole entry: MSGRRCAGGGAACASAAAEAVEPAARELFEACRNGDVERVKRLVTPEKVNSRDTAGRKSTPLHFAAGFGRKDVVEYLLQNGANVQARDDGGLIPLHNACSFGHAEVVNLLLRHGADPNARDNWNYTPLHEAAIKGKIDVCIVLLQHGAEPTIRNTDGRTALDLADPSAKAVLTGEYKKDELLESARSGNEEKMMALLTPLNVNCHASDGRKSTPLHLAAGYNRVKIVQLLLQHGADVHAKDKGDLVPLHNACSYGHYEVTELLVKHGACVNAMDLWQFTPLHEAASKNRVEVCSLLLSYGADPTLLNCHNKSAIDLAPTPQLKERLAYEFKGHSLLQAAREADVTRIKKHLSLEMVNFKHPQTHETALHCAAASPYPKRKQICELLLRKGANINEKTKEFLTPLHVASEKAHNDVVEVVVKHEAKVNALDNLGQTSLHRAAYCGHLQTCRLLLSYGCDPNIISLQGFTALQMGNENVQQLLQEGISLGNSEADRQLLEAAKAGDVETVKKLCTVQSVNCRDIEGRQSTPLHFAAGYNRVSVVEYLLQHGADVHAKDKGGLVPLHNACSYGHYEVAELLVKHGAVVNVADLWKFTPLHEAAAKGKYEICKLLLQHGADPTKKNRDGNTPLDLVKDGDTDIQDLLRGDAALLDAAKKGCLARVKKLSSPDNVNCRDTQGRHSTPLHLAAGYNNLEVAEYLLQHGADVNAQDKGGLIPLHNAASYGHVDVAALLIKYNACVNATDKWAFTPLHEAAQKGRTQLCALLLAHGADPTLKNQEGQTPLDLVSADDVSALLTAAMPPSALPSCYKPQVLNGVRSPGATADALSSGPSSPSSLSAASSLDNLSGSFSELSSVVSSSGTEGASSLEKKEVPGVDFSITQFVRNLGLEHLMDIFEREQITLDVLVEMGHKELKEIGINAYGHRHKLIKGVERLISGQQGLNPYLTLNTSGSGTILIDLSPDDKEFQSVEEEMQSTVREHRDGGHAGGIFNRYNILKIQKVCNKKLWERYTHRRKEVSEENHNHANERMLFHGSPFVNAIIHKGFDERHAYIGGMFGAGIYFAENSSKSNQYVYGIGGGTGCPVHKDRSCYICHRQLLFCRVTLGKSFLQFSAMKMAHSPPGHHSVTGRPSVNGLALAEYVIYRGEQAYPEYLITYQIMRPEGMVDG
UniProt P09874, whole entry: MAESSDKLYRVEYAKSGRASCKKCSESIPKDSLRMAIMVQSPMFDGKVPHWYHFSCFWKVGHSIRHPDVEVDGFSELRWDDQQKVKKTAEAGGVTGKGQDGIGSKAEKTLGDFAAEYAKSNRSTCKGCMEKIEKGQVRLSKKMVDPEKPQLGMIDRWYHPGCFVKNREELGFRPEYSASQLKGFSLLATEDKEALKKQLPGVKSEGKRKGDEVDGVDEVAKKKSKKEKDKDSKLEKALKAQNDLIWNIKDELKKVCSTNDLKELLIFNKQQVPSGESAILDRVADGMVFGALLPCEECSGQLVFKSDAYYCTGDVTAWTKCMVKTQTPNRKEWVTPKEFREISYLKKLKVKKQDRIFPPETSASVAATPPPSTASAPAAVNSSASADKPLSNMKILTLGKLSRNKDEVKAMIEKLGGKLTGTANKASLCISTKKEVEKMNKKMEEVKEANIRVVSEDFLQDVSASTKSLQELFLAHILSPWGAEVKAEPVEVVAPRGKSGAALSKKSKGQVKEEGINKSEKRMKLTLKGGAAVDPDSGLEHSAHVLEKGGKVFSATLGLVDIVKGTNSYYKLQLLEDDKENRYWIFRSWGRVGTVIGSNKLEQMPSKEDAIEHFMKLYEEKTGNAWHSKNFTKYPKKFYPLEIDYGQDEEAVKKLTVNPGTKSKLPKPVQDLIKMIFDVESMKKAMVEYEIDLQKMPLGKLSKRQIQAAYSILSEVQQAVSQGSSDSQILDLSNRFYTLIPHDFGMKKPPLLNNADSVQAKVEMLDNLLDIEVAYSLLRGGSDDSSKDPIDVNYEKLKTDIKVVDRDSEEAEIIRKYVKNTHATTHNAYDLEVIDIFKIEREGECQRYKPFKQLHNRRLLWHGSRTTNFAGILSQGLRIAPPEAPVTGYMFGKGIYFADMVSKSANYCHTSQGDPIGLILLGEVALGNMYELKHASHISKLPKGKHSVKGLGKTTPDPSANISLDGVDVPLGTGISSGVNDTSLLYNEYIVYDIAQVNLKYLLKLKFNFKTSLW

O=c1[nH]c(CCN2CCC(n3c(=O)[nH]c4ccccc43)CC2)nc2ccccc12
in vitro SPA TANK-2 pIC50 [1]: 5.674 | in vitro filter assay PARP-1 pIC50 [2]: 5 | in vitro SPA assay PARP-1 pIC50 [3]: 6.376
